The assay relates to E. granulosus PSCs. Put plainly: microbe, parasite or virus in culture. Conditions: Echinococcus granulosus; for killing at 0.5 µM / killing at 2 µM / killing at 10 µM / killing at 50 µM: 72 h; for killing at 0.5 µM: read-out: Anti-echinicoccus activity, Dose confirmaiton 0.5uM, second-stage dose-response, 0.5 μM, PSCs; for killing at 2 µM: read-out: Anti-echinicoccus activity, Dose confirmaiton 2uM, second-stage dose-response, 2 μM, PSCs; for killing at 10 µM: read-out: Anti-echinicoccus activity, Dose confirmaiton 10uM, second-stage dose-response, 10 μM, PSCs.

The mark [1] stands for this setting: read-out: Anti-echinococcus activity % of death, 0.5uM.
[2] abbreviates: read-out: Anti-echinococcus activity % of death, 2uM.
Where [3] appears, read: read-out: Anti-echinococcus activity % of death, 10uM.
Where [4] appears, read: read-out: Anti-echinococcus activity % of death, 50uM.
Setting [5] is: read-out: Anti-echinococcus activity % of death, 0.5uM, E. granulosus PSCs, compound at 0.5uM.
[6] abbreviates: read-out: Anti-echinococcus activity % of death, 2uM, E. granulosus PSCs, compound at 2uM.
[7] abbreviates: read-out: Anti-echinococcus activity % of death, 10uM, E. granulosus PSCs, compound at 10uM.
The mark [8] stands for this setting: read-out: Anti-echinococcus activity % of death, 50uM, E. granulosus PSCs, compound at 50uM.
The mark [9] stands for this setting: read-out: Anti-echinococcus activity % of death.
Where [10] appears, read: read-out: Anti-echinicoccus activity, Dose confirmaiton 50uM, second-stage dose-response, 50 μM, PSCs.
Setting [11] is: read-out: Anti-echinicoccus activity, Initiate hits 50uM, primary screen, 50 μM, PSCs, 3-day incubation, PI staining (death rate of PSCs).

Structures can show the parent of a compound that is named as a salt. Where two headings read alike, the source gives them in different places.

As to `CC[C@H](C)[C@H]1O[C@]2(CC[C@@H]1C)C[C@@H]1C[C@@H](C/C=C(\C)[C@@H](O[C@H]3C[C@H](OC)[C@@H](O[C@H]4C[C@H](OC)[C@@H](O)[C@H](C)O4)[C@H](C)O3)[C@@H](C)/C=C/C=C3\CO[C@@H]4[C@H](O)C(C)=C[C@@H](C(=O)O1)[C@]34O)O2` [ivermectin 1%], the mortality at 0.5 µM under setting [1] amounted to 0%. Also, the mortality at 2 µM under setting [2] was determined as 0%. Moreover, under setting [3], the mortality at 10 µM came to 0%. The mortality at 50 µM under setting [4] was found to be 100%.

With `O=C(Nc1cc(C(F)(F)F)ccc1Oc1ccc(Cl)c2ccccc12)c1cc(Cl)ccc1O` [MPC-2130], the mortality at 0.5 µM under setting [1] was 0%. For the same compound, under setting [2], the mortality at 2 µM was 40%. Besides, the mortality at 10 µM under setting [3] came out at 100%. In addition, the mortality at 50 µM under setting [4] came to 100%.

On to `CC(C)(C)[C@H](c1nc(-c2cc(F)ccc2F)cn1Cc1ccccc1)N(CC[C@H](N)CF)C(=O)CO` [BQS-481], for which the mortality at 0.5 µM under setting [5] amounted to 0%. Moreover, the mortality at 2 µM under setting [6] stood at 0%. Under setting [7], the mortality at 10 µM is 0%. For the same compound, the mortality at 50 µM under setting [8] was 100%.

Turning to `C=CCc1c(OCCCNCc2ccccc2)ccc2c1[nH]c1ccccc12` [YM-75440], under setting [9], the mortality at 0.5 µM stood at 0%, the mortality at 2 µM amounted to 0%, the mortality at 10 µM was 0% and the mortality at 50 µM came to 100%.

With `c1ccc(CCCC(Oc2ccccc2OCc2ccccc2)C2=NCCN2)cc1` (centres unmarked) [MDL 102588], under setting [9], the mortality at 0.5 µM amounted to 0%, the mortality at 2 µM turned out to be 0%, the mortality at 10 µM turned out to be 0% and the mortality at 50 µM was 100%.

Consider `COCCNCc1ccc(-c2cc3nccc(Oc4ccc(NC(=O)C5(C(=O)Nc6ccc(F)cc6)CC5)cc4F)c3s2)nc1` [MG-516], for which the mortality at 0.5 µM under setting [5] was 0%. Under setting [6], the mortality at 2 µM turned out to be 0%. The mortality at 10 µM under setting [7] amounted to 0%. Also, under setting [8], the mortality at 50 µM is 100%.

For the compound `CSc1ccc2c(c1)N(CCC1CCCCN1C)c1ccccc1S2` (centres unmarked) [thioridazine], the mortality at 0.5 µM under setting [1] was found to be 0%. Also, the mortality at 2 µM under setting [2] turned out to be 0%. The mortality at 10 µM under setting [3] amounted to 0%. Besides, the mortality at 50 µM under setting [4] came out at 100%.

For the compound `CC1(C)CCC2=C(O1)c1ccccc1C(=O)C2=O` [Beta-Lapachone, reference compound], the killing at 0.5 µM is 0%, the killing at 2 µM was 0% and the killing at 10 µM was determined as 50%. Besides, under setting [10], the killing at 50 µM came to 100%. The killing at 50 µM under setting [11] came out at 100%.

For `c1cc2c(cc1C1CCCCC1)c1c3n2CCNC3CCC1` (centres unmarked) [Tetrindole], under setting [9], the mortality at 0.5 µM worked out at 0%, the mortality at 2 µM turned out to be 0%, the mortality at 10 µM was 0% and the mortality at 50 µM was found to be 100%.

With `CN(C)CC1CCn2cc(c3ccccc32)C2=C(C(=O)NC2=O)c2cn(c3ccccc23)CCO1` (centres unmarked) [Ruboxistaurin hydrochloride], the mortality at 0.5 µM under setting [5] worked out at 0%. For the same compound, the mortality at 2 µM under setting [6] was 0%. Under setting [7], the mortality at 10 µM is 100%. Moreover, the mortality at 50 µM under setting [8] came out at 100%.

For the compound `CN1CCN(CCCN2c3ccccc3Sc3ccc(C(F)(F)F)cc32)CC1` [Trifluoperazine dihydrochloride, reference compound], the killing at 0.5 µM was found to be 0%, the killing at 2 µM turned out to be 0% and the killing at 10 µM stood at 0%. Also, the killing at 50 µM under setting [10] came to 100%. The killing at 50 µM under setting [11] is 100%.

As to `C=C(C(=O)OC1CC2CCC(C1)N2C)c1ccccc1` (centres unmarked) [APOATROPINE], under setting [9], the mortality at 0.5 µM stood at 0%, the mortality at 2 µM was 0%, the mortality at 10 µM came out at 0% and the mortality at 50 µM is 100%.

On to `CCCCc1oc2ccc(NS(C)(=O)=O)cc2c1C(=O)c1ccc(OCCCN(CCCC)CCCC)cc1` [dronedarone hydrochloride], for which, under setting [1], the mortality at 0.5 µM was determined as 0%. Moreover, the mortality at 2 µM under setting [2] is 0%. In addition, the mortality at 10 µM under setting [3] is 100%. In addition, under setting [4], the mortality at 50 µM was 100%.

Regarding `CC(OCCN1CCCCCC1)(c1ccccc1)c1ccc(Cl)cc1` (centres unmarked) [setastine], the mortality at 0.5 µM under setting [1] came to 0%. Besides, under setting [2], the mortality at 2 µM came to 0%. Moreover, the mortality at 10 µM under setting [3] was 0%. In addition, the mortality at 50 µM under setting [4] turned out to be 100%.

For `Cc1nnc(-c2cc3c(OC[C@@H](O)CN4CCC(c5ccc(Cl)c(Cl)c5)CC4)cccc3o2)o1` [WF-516], under setting [9], the mortality at 0.5 µM came to 0%, the mortality at 2 µM was 0%, the mortality at 10 µM worked out at 0% and the mortality at 50 µM came out at 100%.

Take `CC/C(=C(\c1ccccc1)c1ccc(OCCN(C)C)cc1)c1ccccc1` [Tamoxifen citrate, reference compound]: the killing at 0.5 µM stood at 0%, the killing at 2 µM worked out at 0% and the killing at 10 µM came to 0%. For the same compound, the killing at 50 µM under setting [11] came out at 76%.

Turning to `CCCCCCCOc1ccc(CCC(N)(CO)CO)cc1C(F)(F)F` [MT-1303], under setting [9], the mortality at 0.5 µM stood at 0%, the mortality at 2 µM was 0%, the mortality at 10 µM amounted to 0% and the mortality at 50 µM was 100%.

Regarding `CC1CCC(C(C)C)C(OC(=O)C[N+](C)(C)CCCCCCCCCC[N+](C)(C)CC(=O)OC2CC(C)CCC2C(C)C)C1` (centres unmarked) [Decamethoxine], the mortality at 0.5 µM under setting [1] was determined as 0%. Also, the mortality at 2 µM under setting [2] was 0%. Moreover, the mortality at 10 µM under setting [3] was 20%. The mortality at 50 µM under setting [4] is 100%.

Turning to `CC(C)C(=O)c1ccc(OCCCN2CCC(C(O)(c3ccc(F)cc3)c3ccc(F)cc3)CC2)cc1` [AHR 16303B], the mortality at 0.5 µM under setting [1] was 0%. Further, the mortality at 2 µM under setting [2] was 0%. The mortality at 10 µM under setting [3] worked out at 30%. In addition, under setting [4], the mortality at 50 µM amounted to 100%.

As to `CC(=O)Oc1ccccc1C(=O)Nc1ncc([N+](=O)[O-])s1` [Nitazoxanide, reference compound], the killing at 0.5 µM was determined as 0%, the killing at 2 µM was 0% and the killing at 10 µM turned out to be 0%. For the same compound, the killing at 50 µM under setting [10] was found to be 100%. For the same compound, the killing at 50 µM under setting [11] came to 54%. Further, the mortality at 0.5 µM under setting [5] was determined as 0%. In addition, the mortality at 2 µM under setting [6] was 0%. The mortality at 10 µM under setting [7] came to 0%. Moreover, the mortality at 50 µM under setting [8] is 100%.

For the compound `CC(NCCC(c1ccccc1)c1ccccc1)c1ccccc1` (centres unmarked) [Fendiline (hydrochloride)], the mortality at 0.5 µM under setting [1] came out at 0%. The mortality at 2 µM under setting [2] was found to be 0%. Moreover, the mortality at 10 µM under setting [3] is 0%. For the same compound, under setting [4], the mortality at 50 µM came out at 100%.

With `CCOC(=O)C1=C(C)NC(CN(C)CC(C)(C)NCC(O)COc2ccccc2OC)=C(C(=O)OCC)C1c1cccc([N+](=O)[O-])c1` (centres unmarked) [Z 6568], under setting [9], the mortality at 0.5 µM was 0%, the mortality at 2 µM amounted to 0%, the mortality at 10 µM was 0% and the mortality at 50 µM amounted to 100%.

Take `CCOC(=O)[C@H](Cc1ccc(F)cc1)NC(=O)[C@@H](N)Cc1ccc(N(CCCl)CCCl)cc1` [J-1]: under setting [1], the mortality at 0.5 µM came out at 0%. Besides, under setting [2], the mortality at 2 µM stood at 0%. Moreover, under setting [3], the mortality at 10 µM amounted to 100%. Also, the mortality at 50 µM under setting [4] was 100%.

Take `Cc1cc(Cl)c(OCCOc2ccc(C3=C(C(=O)N(Cc4cccc(C)c4C)C4CC4)C4CNCC(C3)N4)cc2)c(Cl)c1` (centres unmarked) [MK-8141]: under setting [9], the mortality at 0.5 µM is 0%, the mortality at 2 µM was 0%, the mortality at 10 µM was 0% and the mortality at 50 µM came out at 100%.

Take `CC(CN(C)C)Oc1cccc(Br)c1-c1cc2c(c3c1C(=O)N(C)C3=O)c1ccccc1n2C` (centres unmarked) [PH-CBR-2016-001-HVAC-11309-0]: the mortality at 0.5 µM under setting [1] is 0%. In addition, under setting [2], the mortality at 2 µM stood at 0%. Besides, the mortality at 10 µM under setting [3] was found to be 0%. The mortality at 50 µM under setting [4] worked out at 100%.

For `CCCCN(CCCC)c1ccc2nc3ccc(N(CCCC)CCCC)cc3[s+]c2c1` [PPA904], the mortality at 0.5 µM under setting [1] was found to be 0%. Besides, the mortality at 2 µM under setting [2] came out at 20%. For the same compound, the mortality at 10 µM under setting [3] was determined as 100%. Besides, the mortality at 50 µM under setting [4] was found to be 100%.

Regarding `NC[C@@](O)(c1ccc(Cl)cc1)c1ccc(-c2cn[nH]c2)cc1` [AT13148], the killing at 0.5 µM was found to be 0%, the killing at 2 µM is 0% and the killing at 10 µM was found to be 0%. Under setting [10], the killing at 50 µM was 100%. Further, the killing at 50 µM under setting [11] amounted to 100%.

Regarding `COc1ccc(NC(=N)Nc2ccc3c4c(cccc24)CC3)c2ccccc12` [CNS 1237], the mortality at 0.5 µM under setting [1] was 0%. The mortality at 2 µM under setting [2] stood at 0%. Moreover, under setting [3], the mortality at 10 µM was 0%. Further, the mortality at 50 µM under setting [4] is 100%.

`CC1(C)CC[C@]2(NC(=O)C(C)(F)F)CC[C@]3(C)[C@H](C(=O)C=C4[C@@]5(C)C=C(C#N)C(=O)C(C)(C)[C@@H]5CC[C@]43C)[C@@H]2C1` [RTA-63415]: under setting [1], the mortality at 0.5 µM is 0%. Further, the mortality at 2 µM under setting [2] was 0%. Under setting [3], the mortality at 10 µM is 100%. Moreover, the mortality at 50 µM under setting [4] is 100%.

For `O=C(C=C(O)c1nnc[nH]1)c1ccc(Cc2ccc(F)cc2)o1` [S-1360], the mortality at 0.5 µM under setting [1] is 0%. For the same compound, under setting [2], the mortality at 2 µM was determined as 0%. The mortality at 10 µM under setting [3] stood at 30%. Further, the mortality at 50 µM under setting [4] amounted to 100%.
